This series in a line: Toxicity (mouse LD50). As to conditions: in vivo.

By LD50 is commonly meant the dose at which mortality reaches 50%. Higher therefore signals a less toxic substance. `c1ccc(C2CN3CCSC3=N2)cc1` (stereo not shown) [levamisole, 2,3,5,6-tetrahydro-6-phenyl-imidazo[2,1-b]thiazole]: the LD50 came out at 121 mg/kg.

The record behind these values is patent publication US4584305A, “Aiding the regression of neoplastic disease with 2,3,5,6-tetrahydro-6-phenylimidazo[2,1-b]thiazole” (Janssen Pharmaceutica N.V., priority 1981, dated 1986).
